Target: Voltage-dependent N-type calcium channel subunit alpha-1B (Homo sapiens, UniProt Q00975)
Experiment: Inhibition of N-type calcium channel in IMR32 human neuroblastoma cells using fluorescent [Ca2+] indicator Indo-1 in the presence of 5 uM nitrendipine (L-type [Ca2+] channel inhibitor)
Type: functional

Amino acid sequences for entries named in this document (tags omitted).
UniProt Q00975, whole entry: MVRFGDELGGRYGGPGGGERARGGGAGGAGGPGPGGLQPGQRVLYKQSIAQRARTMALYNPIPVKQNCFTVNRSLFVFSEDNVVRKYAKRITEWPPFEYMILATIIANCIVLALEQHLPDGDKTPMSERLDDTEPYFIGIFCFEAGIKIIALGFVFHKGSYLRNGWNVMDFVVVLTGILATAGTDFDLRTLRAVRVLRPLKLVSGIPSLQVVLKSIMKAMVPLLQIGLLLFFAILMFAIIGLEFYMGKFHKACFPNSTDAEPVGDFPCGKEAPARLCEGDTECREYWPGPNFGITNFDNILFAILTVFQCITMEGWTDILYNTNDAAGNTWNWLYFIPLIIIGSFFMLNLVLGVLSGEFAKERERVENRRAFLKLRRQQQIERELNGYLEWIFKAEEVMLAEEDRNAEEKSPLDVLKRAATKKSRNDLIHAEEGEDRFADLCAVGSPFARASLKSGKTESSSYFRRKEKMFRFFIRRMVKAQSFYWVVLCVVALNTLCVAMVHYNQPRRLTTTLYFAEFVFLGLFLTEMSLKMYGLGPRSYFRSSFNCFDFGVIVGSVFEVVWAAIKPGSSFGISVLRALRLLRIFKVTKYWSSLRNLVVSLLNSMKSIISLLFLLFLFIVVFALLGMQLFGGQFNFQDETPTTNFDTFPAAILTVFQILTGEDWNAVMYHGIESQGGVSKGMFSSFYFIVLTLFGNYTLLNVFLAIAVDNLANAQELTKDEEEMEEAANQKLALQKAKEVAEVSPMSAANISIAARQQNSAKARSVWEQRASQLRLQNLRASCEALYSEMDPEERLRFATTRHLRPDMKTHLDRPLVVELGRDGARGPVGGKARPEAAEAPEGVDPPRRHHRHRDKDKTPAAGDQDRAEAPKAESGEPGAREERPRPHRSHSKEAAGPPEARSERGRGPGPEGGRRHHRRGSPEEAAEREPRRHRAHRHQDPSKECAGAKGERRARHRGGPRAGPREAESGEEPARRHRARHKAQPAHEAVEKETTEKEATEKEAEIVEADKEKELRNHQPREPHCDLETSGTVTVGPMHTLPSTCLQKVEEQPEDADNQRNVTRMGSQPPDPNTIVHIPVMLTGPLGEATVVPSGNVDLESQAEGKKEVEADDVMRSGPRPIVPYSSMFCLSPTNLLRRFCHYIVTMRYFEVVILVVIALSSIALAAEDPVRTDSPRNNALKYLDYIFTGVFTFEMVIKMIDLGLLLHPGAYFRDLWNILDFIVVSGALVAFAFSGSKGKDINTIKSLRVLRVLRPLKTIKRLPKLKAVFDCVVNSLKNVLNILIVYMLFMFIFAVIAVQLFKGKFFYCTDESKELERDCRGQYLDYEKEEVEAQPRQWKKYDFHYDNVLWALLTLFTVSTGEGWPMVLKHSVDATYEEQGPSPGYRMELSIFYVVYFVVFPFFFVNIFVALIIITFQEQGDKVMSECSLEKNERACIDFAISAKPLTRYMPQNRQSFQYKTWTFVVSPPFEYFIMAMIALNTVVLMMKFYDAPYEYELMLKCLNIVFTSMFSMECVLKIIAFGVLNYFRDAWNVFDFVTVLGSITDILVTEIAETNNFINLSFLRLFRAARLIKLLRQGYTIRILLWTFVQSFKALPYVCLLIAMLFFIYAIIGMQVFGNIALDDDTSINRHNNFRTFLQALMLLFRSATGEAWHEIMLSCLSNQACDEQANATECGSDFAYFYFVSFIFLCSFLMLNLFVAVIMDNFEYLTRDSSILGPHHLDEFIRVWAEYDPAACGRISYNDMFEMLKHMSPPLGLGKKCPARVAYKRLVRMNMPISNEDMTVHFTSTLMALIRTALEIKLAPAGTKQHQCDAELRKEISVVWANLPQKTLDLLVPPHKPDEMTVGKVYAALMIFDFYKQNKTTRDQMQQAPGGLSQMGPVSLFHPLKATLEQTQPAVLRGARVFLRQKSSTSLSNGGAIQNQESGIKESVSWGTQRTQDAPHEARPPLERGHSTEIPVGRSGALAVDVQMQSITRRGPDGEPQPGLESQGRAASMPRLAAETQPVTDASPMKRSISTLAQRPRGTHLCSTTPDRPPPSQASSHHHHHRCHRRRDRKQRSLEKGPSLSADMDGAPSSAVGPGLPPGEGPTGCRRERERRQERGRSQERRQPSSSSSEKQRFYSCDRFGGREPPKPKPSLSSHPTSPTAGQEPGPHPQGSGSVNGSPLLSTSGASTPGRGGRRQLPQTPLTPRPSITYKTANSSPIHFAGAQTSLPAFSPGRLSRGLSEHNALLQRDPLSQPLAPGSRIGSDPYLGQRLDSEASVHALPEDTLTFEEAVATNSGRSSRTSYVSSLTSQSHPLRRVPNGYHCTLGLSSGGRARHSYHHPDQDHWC

IC50: 1.5 µM
SMILES: CN[C@@H](CC(C)C)C(=O)NCCCC(c1ccc(F)cc1)c1ccc(F)cc1.Cl

— ChEMBL document CHEMBL1133645, “(S)-4-Methyl-2-(methylamino)pentanoic acid [4, 4-bis(4-fluorophenyl)butyl]amide hydrochloride, a novel calcium channel antagonist, is efficacious in several animal models of pain” (J Med Chem, 2000)
